Data from patent US20230346820A1, “METHODS AND COMPOSITIONS FOR THE TREATMENT OF SARS-COV-2” (priority 2020, published 2023).

Tests used:
[1] = tested on: SARS-CoV-2
[2] = tested on: SARS-CoV-2; remark: listed apart in the source

Structure (SMILES): COc1ccc(C[C@H]2NC[C@H](O)[C@H]2OC(C)=O)cc1 [ANISOMYCIN]
- HeLa-ACE2 SI CC50/CoV-2 EC50 [1]: 2.85
- Calu3 SI CC50/CoV-2 EC50 [2]: 46.98
